AlphaSeq binding of Ab-14 light chain variants to a spike HR2 peptide

Values reported by Li et al. 2023, doi:10.1038/s41467-023-39022-2 (FLAb copy).

Target peptide (SARS-CoV-2 spike, HR2 region): PDVDLGDISGINAS

The variants keep the heavy chain, the linker and the frameworks of Ab-14 (scFv order VH, three GGGGS repeats, VL).
VH: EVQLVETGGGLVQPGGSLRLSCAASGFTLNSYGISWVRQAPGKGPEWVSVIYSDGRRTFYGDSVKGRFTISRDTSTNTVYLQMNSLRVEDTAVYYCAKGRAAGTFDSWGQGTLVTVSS
VL: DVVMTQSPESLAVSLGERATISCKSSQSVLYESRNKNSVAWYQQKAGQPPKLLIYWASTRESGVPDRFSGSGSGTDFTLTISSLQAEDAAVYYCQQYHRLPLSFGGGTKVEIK

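These sequences belong to a second round, designed from the earlier measurements on random variants of the parent. Several design methods are mixed in this list. AlphaSeq pools MATa yeast showing the antibodies with MATalpha yeast showing the peptide. Mating (16 h, 30 °C) was followed by selection of diploids and sequencing of their barcodes. Read counts were normalised to the haploid input and turned into Kd by a linear fit to BCL2-family pairs of known affinity, for each replicate. Each pool was mated in six replicate cultures.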

Variants are written as CDR1, CDR2 and CDR3 of the light chain (limits as in the source). Parent: KSSQSVLYESRNKNSVA, WASTRES, QQYHRLPLS. Numbers give log10(Kd / nM), so 0 is 1 nM and 3 is 1 µM. Smaller is tighter. The mean shown is taken over the replicates in which the pair was detected. "nd" marks a missing value. The strain was present, yet no cells mated with the target were sequenced in any replicate, which points to weak or no binding.

CDR-L1	CDR-L2	CDR-L3	log10 Kd (nM), mean	replicates with signal
KSSQSVLYESRNVNSVA	GASTRES	QQYHRLPLS	0.43	6 of 6
KQQGGQDYESRNDNSVA	DASLRES	QQYHRLPLS	1.16	6 of 6
ALQQSELYGSRNKNSVA	NASTRED	QQYHRLPLS	-0.10	6 of 6
KWAWSQLYESRNKNSVA	NASTRES	QQYRRLPLS	-0.07	6 of 6
KLSQSNLYESRNKNNVA	GASTRES	QQYHRLPLS	-0.23	6 of 6
KSLQSVLYESRDKNAVA	HASTRED	QQYHRLPLS	0.28	6 of 6
HLSQSVLYESRQKNSVA	NASQRES	QQYHRLPLS	-0.36	6 of 6
KFEQSMGYESRNQNSVA	EASHRES	QQYHRLPLW	0.02	6 of 6
KVEFSVDYESRNKNSVA	QASTREK	QQYHRLPLS	0.20	6 of 6
FSSQSVLYESRNKNSVA	NASTRES	QQYHRLPLS	0.93	6 of 6
MISQLTNMGTFAINSVA	QASIRNS	QQYDRLPLM	1.58	6 of 6
MVTQMAMTGMKNKRSVA	NAETREK	QQYNRLPLI	1.24	6 of 6
WLNWEGQGDDRGMSNIA	DSDTRMA	QQYHRLPLS	0.06	6 of 6
ILSQSVLMGSHLKNNVA	QASTRFN	QQYHRLPLS	3.32	1 of 6
KQSHSLLYESRNKNSVA	WASTRES	QQYHRLPLS	1.74	3 of 6
KVSQSFLYESRNKNAVA	QASTRES	QQYHRLPLS	-0.32	6 of 6
KSSQSWLYESRNKNNVA	GASTREN	QQYHRLPLS	-0.25	6 of 6
KSSQSVPDESRNKNSVA	WASTRES	QQYHRFPIS	nd	0 of 6
HISMSVGVTSFNKNSVA	ENSTREN	QQYDRLPLS	2.06	5 of 6
KPSISYLYEPRNKNSVA	EASTRES	QQYHRLPLS	1.34	6 of 6
QVQYHPGESLRHASAIA	DVNIKVM	QQYSRLPLA	0.68	6 of 6
KISQSYLYESRNKNSVA	NASQRES	QQYHRLPLS	-0.80	6 of 6
KFSQSVGYESRNKNSVA	NAQTRMQ	QQYHRLPLS	-0.02	6 of 6
KHRQSVLYESRNKNSVA	WASTRES	QQYHRLPLS	1.54	2 of 6
KSSQPRLYESRNKNSVA	MASTRES	QQYARLPLS	0.58	6 of 6
NISGMVEEIETRQKNIA	EVEFRCM	QQYSRLPLS	2.03	1 of 6
KSSQSVLYESRWKNSVA	NASTRES	QQYHRLPLS	0.78	6 of 6
KLSQSVLYESRNKNNVA	NASTREE	QQYHRLPLS	-0.52	6 of 6
KLSLVLGVSKQSEKNIA	NMRLKVA	QQYDRLPLT	1.20	6 of 6
KLQQSMLYESRNKNSVA	NASQRES	QQYHRLPLS	0.13	6 of 6
MIHEMMGLVSHKQSSIA	DNSTRED	QQYDRLPLS	nd	0 of 6
KIGMTLNQHLHQKNNVA	DLVERVN	QQYHRLPLS	0.47	6 of 6
KLSQMVDYESRNMNNVA	EASTRES	QQYHRLPLS	-0.22	6 of 6
KLSQVTHSELRNKNSIA	EMVTREV	QQYDRLPLS	0.77	6 of 6
KSSQSVFYESRNKNSVA	WASTRES	QQYHNLPLS	2.04	4 of 6
KLSQSVLYESRNKNNVA	NASYRES	QQYHRLPLS	-0.39	6 of 6
KVPQSHLYESRNKNSVA	DASTRES	QQYHRLPLS	-0.02	6 of 6
KSSQSVPYESRNKNSVA	WASTRES	QQLHRLPLS	nd	0 of 6
NISHFMDVTAKNINNVA	EMTMRER	QQYHHLPLS	0.75	6 of 6
KLQQSVGYESRNQNAVA	QASTREE	QQYHRLPLS	-0.04	6 of 6
HLGQEGYNQTYAMDSVA	DQNTALE	QHYSRLPLT	nd	0 of 6
KDSQSVLYESRNKNSVA	EASTRES	QQYHRLPLS	0.15	6 of 6
SLMQVGGYESNQHNSIA	DLRTRES	QQYHRLPLS	0.47	6 of 6
MFSQLTYTGSRARNAVA	QASTREN	QQYHHLPLA	0.86	6 of 6
HITYGMNVAGRHSSSIA	QAEEREK	QQYDRLPLI	0.20	6 of 6
HMSMLTLQGMRIRNSVA	QMTTREN	QQYDRLPLS	1.25	6 of 6
KLPQSVLYQSRNKNSVA	NASTRES	QQYHRLPLS	-0.26	6 of 6
HISMSFMTESVNRNSVA	HQSTREQ	QQYDRLPLS	0.31	6 of 6
HVSQMVMYGSCNANNVA	QVSTREE	QQYHRLPLS	0.91	6 of 6
KSSQSVLYEDRNKNSVA	WASTREV	QQYHRLPLS	1.45	4 of 6
KCSNSVLYESRNKNSVA	WASTRES	QQYFRLPLS	1.54	4 of 6
KISQAYLYESRNKNSVA	QASHREQ	QQYHRLPLS	0.02	6 of 6
KLSGSMLYEERNWNSVA	HASHRES	QQYHRLPLS	-0.11	6 of 6
NITGMVEEIGTTTKNIA	EGEFRCM	QQYSRLPLS	1.11	6 of 6
KLSQSVLYQMQQKNSVA	QASTRMS	QQYHRLPLS	0.22	6 of 6
KMSQAVLYESRNKNSVA	WASTRES	QQYHRFPLS	1.30	5 of 6
KSSWSVLYESNNKNSVA	QASTRED	QQYHRLPLS	0.47	6 of 6
KLYESIHVESKQKNNVA	DNSTRES	QDYHRLPLS	2.64	4 of 6
KLSQITGHLMVSKNNVA	EMETREN	QQYDRLPLS	0.60	6 of 6
KLSQSELYESRNKNSVA	NASTRMD	QQYHRLPLS	-0.41	6 of 6
KLSQSNGYESRMKNSVA	NASQREC	QQYHRLPLS	0.93	6 of 6
KMAQGWPYESRNKNSVA	NASYREM	QQYHRLPLS	0.72	6 of 6
KSSQSVLYESRNKNSVA	KASTRNS	QQYHRLPLS	2.16	5 of 6
KIQMHLNQVAGQEGHVA	DASETWE	QQYFQLPIS	1.05	6 of 6
KLYQRGLGSQKVDRSIA	ETSTRCT	QSYQRLPLS	2.16	6 of 6
KLPQSVLYESRNKNSVA	SASTRMS	QQYHRLPLS	-0.39	6 of 6
KESQSVPFEWRNKNSVA	DASTRES	QQYHRLPLS	0.00	6 of 6
HLSDLLSYGKDLQAAVA	GVQTRMT	QQYARLPLF	0.17	6 of 6
SFDLTKSGMENERYSIA	ERSTLMT	QDYHRLPLA	1.60	6 of 6
KTSQSDLYESRNKNSVA	WASTRES	QQYHELPLS	1.44	5 of 6
KSCQSVLEESRNKNSVA	WASTRES	QQYHRLPLS	1.65	5 of 6
MLTMFNNENQGWSNNIA	DTNNVQE	QQYSRLPFA	1.25	6 of 6
KLQNFSQEHNGMWNSIA	DMTMKHT	QQYNRLPLV	0.85	6 of 6

For reference, 4 entries of the list once more:

CDR-L1	CDR-L2	CDR-L3	log10 Kd (nM), mean	replicates with signal
KSSQSVFYESRNKNSVA	WASTRES	QQYHNLPLS	2.04	4 of 6
KLSQVTHSELRNKNSIA	EMVTREV	QQYDRLPLS	0.77	6 of 6
KLSQSVLYESRNKNNVA	NASTREE	QQYHRLPLS	-0.52	6 of 6
MISQLTNMGTFAINSVA	QASIRNS	QQYDRLPLM	1.58	6 of 6

Values of this round are not directly comparable with the first-round values of the same sequences. As a blank, each scFv also met three strains without target: over all light chain designs, 4% of these pairings were detected, typically at 2.64 and seldom below 1.59. In the paper, a design with two or fewer of six values counts as a poor binder.